This is one part of the list.
These molecules were tested on A. baumannii ATCC 17978 (assay: relative growth (fraction of control); higher = less inhibition). Conditions: 50 µM.

Going from `COc1cccc(S(=O)(=O)Nc2ccc3c(c2)[C@H]2C[C@H](CC(=O)NCc4cccc(F)c4)O[C@H](CO)[C@H]2O3)c1` to `O=C(C[C@H]1C=C[C@@H](NS(=O)(=O)c2ccc(F)cc2)[C@@H](CO)O1)N1CCC(Cc2ccccc2)CC1`, the relative growth falls from 1 to 0.855.

First: CCNC(=O)C[C@@H]1C=C[C@@H](NC(=O)C2CCOCC2)[C@@H](CO)O1
Second: CN(C)CCCNC(=O)C[C@H]1C=C[C@H](NC(=O)Cc2cccnc2)[C@H](CO)O1
The relative growth of the first is higher: 1.06 for the first, 0.951 for the second.

Compared with `Nc1cccc2c1CN(C1CCC(=O)NC1=O)C2=O` (centres undefined), `COc1ccc(C2=C(N)C(=O)NC2=O)cc1OC` is lower in relative growth: 1.19 for the first, 0.918 for the second.

Compared with `Cc1cccc2c3c(ccc12)C1=C(C(=O)C3=O)C(C)CO1` (centres undefined), `COc1ccc(S(=O)(=O)N(C)C[C@@H]2Oc3c(NC(=O)Nc4cccc5ccccc45)cccc3C(=O)N([C@@H](C)CO)C[C@H]2C)cc1F` is higher in relative growth: 0.924 for the first, 1.06 for the second.

Going from `CCOC(=O)CSc1nc(=O)cn[nH]1` to `CCOC(=O)CC1(C)NNC(=S)NN1`, the relative growth falls from 1.16 to 0.947.

Going from `O=C(C[C@H]1CC[C@@H]2[C@H](COC[C@H](O)CN2S(=O)(=O)c2ccc(F)cc2)O1)NCCN1CCCCC1` to `O=C(C[C@@H]1CC[C@@H]2[C@H](COC[C@H](O)CN2S(=O)(=O)c2ccc(Cl)cc2)O1)NCCN1CCCC1`, the relative growth rises from 0.897 to 1.04.

Going from `NCc1cn(-c2ccccc2)nc1C12CC3CC(CC(C3)C1)C2` to `NC[C@@H]1CC(=O)N(c2ccccc2)C1`, the relative growth rises from 0.11 to 0.891.

Compared with `Cc1cc(O)c(C=O)c2c1C(=O)Oc1c(COC(=O)/C=C/C(=O)O)c(O)c(C(=O)O)c(C)c1O2`, `O=C(O)[C@H]1O[C@@H](Oc2c(-c3ccc(O)cc3)oc3cc(O)cc(O)c3c2=O)[C@H](O)[C@@H](O)[C@@H]1O` is higher in relative growth: 1.06 for the first, 1.08 for the second.

Compared with `C[C@H]1CN([C@@H](C)CO)S(=O)(=O)c2ccc(C#CCN(C)C)cc2O[C@@H]1CN(C)S(C)(=O)=O`, `CC(C)CC#Cc1ccc2c(c1)O[C@@H](CN(C)C(=O)Cc1cccnc1)[C@H](C)CN([C@H](C)CO)S2(=O)=O` is lower in relative growth: 1.17 for the first, 0.861 for the second.

Compared with `N#CNC1=NCN(CCN2CCOCC2)CN1`, `O=C(Cc1ccccn1)NCC[C@@H]1CC[C@@H](NC(=O)CN2CCOCC2)[C@H](CO)O1` is higher in relative growth: 0.99 for the first, 1.11 for the second.

Compared with `C[C@@H]1CC[C@@]2(OC1)O[C@H]1CC3C4CC[C@H]5C[C@@H](O)CC[C@]5(C)C4CC[C@]3(C)[C@H]1[C@@H]2C` (some centres undefined), `CC(=O)OCC(=O)[C@@]1(O)CCC2C3CCC4=CC(=O)CC[C@]4(C)C3[C@@H](O)C[C@@]21C` (some centres undefined) is lower in relative growth: 1.14 for the first, 0.985 for the second.

First: Brc1c(NC2=NCCN2)ccc2nccnc12
Second: Cc1ccc2c(Cl)cc(Cl)c(O)c2n1
The relative growth of the first is lower: 1.15 for the first, 1.31 for the second.

Going from `O=S(=O)(NCC[C@@H]1CC[C@H](NS(=O)(=O)c2ccccc2Cl)[C@H](CO)O1)c1ccc(F)cc1` to `CNC(=O)c1cc(S(=O)(=O)N(C)C[C@@H]2Oc3ccc(NC(=O)Nc4ccc(F)cc4)cc3CC(=O)N([C@@H](C)CO)C[C@@H]2C)cs1`, the relative growth falls from 1.22 to 0.837.

Going from `COC(=O)CNS(=O)(=O)c1ccsc1C(=O)OC` to `C[C@H]1[C@H](NC(=O)/C(=N/OC(C)(C)C(=O)O)c2csc(N)n2)C(=O)N1S(=O)(=O)O`, the relative growth falls from 0.976 to 0.147.

Compared with `CN1C2CCC1CC(OC(=O)c1c[nH]c3ccccc13)C2.Cl` (centres undefined), `Cn1cc(S(=O)(=O)N2CCN(Cc3ccccc3)CC2)c(=O)n(C)c1=O` is higher in relative growth: 0.979 for the first, 1.16 for the second.

Compared with `OC[C@H]1NC[C@@H](O)[C@@H](O)[C@@H]1O`, `COc1cccc(NC(=O)N[C@H]2CC[C@H](CC(=O)N3CCN(C)CC3)O[C@@H]2CO)c1` is lower in relative growth: 0.942 for the first, 0.874 for the second.

First: CO[C@H](CN(C)C(=O)c1ccc2c(c1)OCO2)[C@@H](C)CN([C@H](C)CO)S(=O)(=O)c1ccc(F)cc1
Second: COCC(=O)N1C[C@H](C)[C@H](OC)CN(C)C(=O)c2cc(NC(=O)c3ccc(OC)cc3)ccc2OC[C@H]1C
The relative growth of the first is lower: 0.854 for the first, 1.12 for the second.

First: O=C(OCc1ccccc1)c1ccccc1
Second: NCc1c[nH]nc1-c1ccccc1
The relative growth of the first is higher: 0.928 for the first, 0.855 for the second.

First: O=C(O)C[C@H]1Nc2ccccc2NC1=O
Second: O=C(CCCCCCC(=O)Nc1ccccc1O)N/N=C/[C@H](O)[C@@H](O)[C@@H](O)[C@H](O)C(=O)O
The relative growth of the first is higher: 1.04 for the first, 1.02 for the second.

Going from `O=S1(=O)NCC2(COC2)O1` to `O=C(NC1(C(F)(F)F)Oc2cc(Cl)c(Cl)cc2O1)C1=C(N2CCOCC2)/C(=C/c2ccccc2)CC1`, the relative growth falls from 0.881 to 0.651.

Compared with `N#CCSc1n[nH]c(=O)[nH]c1=O`, `Cc1cc(N)n(-c2nc(=O)cc(C)[nH]2)n1` is lower in relative growth: 0.946 for the first, 0.898 for the second.

Compared with `Cl.NC(CO)C(=O)NNCc1ccc(O)c(O)c1O` (centres undefined), `O=S(=O)(NCCCCN(C/C=C/c1ccc(F)cc1)C/C=C/c1ccc(F)cc1)c1cccc2cnccc12` is higher in relative growth: 0.985 for the first, 1.16 for the second.
